Binding of CDR-mutated scFvs to a peptide of the spike HR2 region

Source: Engelhart et al. 2022 (doi:10.1038/s41597-022-01779-4), MIT Lincoln Laboratory and A-Alpha Bio; data file from the FLAb repository.

Target peptide (SARS-CoV-2 spike, HR2 region): PDVDLGDISGINAS

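The starting antibody came from a phage panning campaign against this peptide. Library AAYL51 holds single substitutions and randomly drawn double and triple substitutions in the CDRs. AlphaSeq pools MATa yeast showing the antibodies with MATalpha yeast showing the peptide. Pairs that bind mate more often; barcode pairs of the diploids are counted by sequencing. Each replicate has its own calibration line, from reference interactions of the BCL2 family. Each pool was mated in three replicate cultures.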

Parent scFv Ab-91: VL joined to VH by a 15-residue (Gly4Ser)3 linker. Changes lie in the heavy chain CDRs alone.
VL: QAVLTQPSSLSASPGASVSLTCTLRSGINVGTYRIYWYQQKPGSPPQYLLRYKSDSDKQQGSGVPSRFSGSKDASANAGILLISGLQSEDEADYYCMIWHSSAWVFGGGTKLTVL
VH: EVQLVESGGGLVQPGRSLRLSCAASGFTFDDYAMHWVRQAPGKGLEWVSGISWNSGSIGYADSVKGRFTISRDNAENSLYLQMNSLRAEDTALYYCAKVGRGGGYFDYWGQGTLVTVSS

Substitutions are numbered in sequence along the VH above, starting at 1 (not Kabat). Numbers give log10(Kd / nM), so 0 is 1 nM and 3 is 1 µM. Smaller is tighter. Where no diploid with the target was found in that replicate, the entry reads "ND": below detection, most likely a poor binder, though not proof of it. Three control strains display no target. For library AAYL51, 21% of the pairings with them gave a signal, with a median of 4.54 and one signal in twenty below 3.26, so weak values seen in few replicates may be background. Also given: how often the same scFv was detected with the empty control strains, with their mean in brackets. In this assay the parent's reference entry averaged 1.86; its copy inside this library read 0.88.

changes,"log10 Kd, replicates",signal with controls
N54I+A61C+R101M,ND / ND / ND,0 of 9
D31N+M34N+K65G,ND / ND / ND,0 of 9
G50Q+S55H+V99D,ND / ND / ND,0 of 9
F29T+G102T,ND / ND / ND,0 of 9
A61G+G102F+Y108G,ND / ND / ND,0 of 9
D31Y+A33W+A61Y,ND / 3.79 / ND,0 of 9
D30W+G56M+R101S,3.75 / 3.41 / 2.79,0 of 9
F29V+W53I+G102C,4.94 / ND / 4.43,4 of 9 (4.85)
N54H+V64G,ND / ND / ND,1 of 9 (4.80)
F27T+H35D+G50C,ND / ND / ND,1 of 9 (3.85)
G26D+F29W+I51F,ND / ND / ND,0 of 9
F29S+A61N,ND / ND / ND,0 of 9
H35E+Y105L+D107L,ND / ND / ND,3 of 9 (4.54)
A33N+G56F+S57F,ND / ND / ND,1 of 9 (3.89)
D62W+R101G,3.56 / ND / ND,1 of 9 (3.41)
A61F+K65F,3.80 / ND / ND,3 of 9 (4.56)
S52N+S57N+A61F,ND / 4.37 / ND,2 of 9 (3.97)
A33C+N54H+R101T,ND / ND / ND,0 of 9
G50D+S55F+G103M,ND / ND / ND,2 of 9 (4.16)
F29M+D30E+M34V,3.95 / 5.79 / ND,6 of 9 (4.59)
W53A+A61S+D62Q,3.16 / 3.13 / 2.50,5 of 9 (4.24)
T28F+Y60H+D62I,4.67 / ND / ND,1 of 9 (5.18)
S57P+G103V+F106D,3.98 / ND / ND,2 of 9 (4.32)
W53F+D107L,0.81 / 0.83 / -0.11,0 of 9
Y60A+G100I+R101N,ND / ND / ND,0 of 9
F27L+D30Y+W53Y,2.88 / 3.38 / 3.33,1 of 9 (4.33)
W53M+K65I,1.32 / 1.18 / 0.64,3 of 9 (4.70)
M34I+W53Y+S57M,1.94 / 1.87 / 1.42,0 of 9
M34I+N54G,4.18 / 5.62 / 5.50,8 of 9 (4.92)
T28S+N54S+V99S,2.70 / 2.38 / 2.21,1 of 9 (4.00)
T28V+I51G+F106T,6.43 / ND / ND,6 of 9 (4.41)
H35E+I51A+G56W,ND / 6.16 / 4.26,3 of 9 (4.47)
Y32P+M34D+S55M,4.15 / 4.90 / 5.38,7 of 9 (4.68)
V99Q+G102A+G104Q,1.54 / 1.66 / 1.12,4 of 9 (4.79)
V64T+F106Q,ND / ND / 4.82,1 of 9 (3.51)
F27N+M34L+G104A,4.28 / ND / ND,3 of 9 (5.07)
Y32L+G50L+A61Y,ND / ND / ND,2 of 9 (5.16)
G26F+M34H+S57K,5.52 / ND / ND,2 of 9 (4.05)
G26N+S57K+A61D,ND / ND / ND,4 of 9 (4.50)
A33D+D62F+S63G,5.13 / ND / ND,8 of 9 (4.43)
G59F,ND / ND / 3.99,0 of 9

The closing 5 entries, repeated:

changes,"log10 Kd, replicates",signal with controls
Y32L+G50L+A61Y,ND / ND / ND,2 of 9 (5.16)
G26F+M34H+S57K,5.52 / ND / ND,2 of 9 (4.05)
G26N+S57K+A61D,ND / ND / ND,4 of 9 (4.50)
A33D+D62F+S63G,5.13 / ND / ND,8 of 9 (4.43)
G59F,ND / ND / 3.99,0 of 9